Publication PMC5395944

Target: PglK wild type (lipid-linked oligosaccharide flippase, ABC transporter) from Campylobacter jejuni (C. jejuni) (UniProt Q0P9C4)
Test: cross-linking; 0.1% glutaraldehyde for 30 min, then high-mass MALDI mass spectrometry; PglK 18 μM and Nb 18 μM (1:2 PglK-homodimer:Nb), 10 mM HEPES pH 7.5, 100 mM NaCl, 0.016% LMNG; without nucleotides or with 5 mM MgCl2 and 5 mM ADP or ATP

stoichiometry N: 2
Substance: PglK wild type (lipid-linked oligosaccharide flippase, ABC transporter) from Campylobacter jejuni (from UniProt Q0P9C4 3-564) (natural protein)
